Here are results for one compound from US4016193A, “Novel substituted phenylacetic acid derivatives and a process for preparing thereof” (Mitsubishi Yuka Pharmaceutical Co., Ltd., priority 1974, dated 1977).

One data set in a line: in vivo. As to conditions: rat, po, orally, rats.
The test system of data set [1] is writhing syndrome caused by acetic acid. In words: Analgesic activity, acetic acid writhing method, oral. The class given is in vivo, dd origin male mice. Conditions: ratio of ED50 values; methyl 3-nitro-4-allyloxyphenylacetate defined as 1. As to the method: (b) The analgesic activity was measured by means of acetic and writhing
10dd origin male mice weighing 17 -
25g were used as one group after 18 hours of fasting. After oral
administration of the test compounds the frequencies of writhing syndrome
caused by intraperitoneal administration of 0.1 ml/10g of a 0.6% acetic
acid were measured for 20 minutes. The frequencies of writhing syndrome
which are below 50% of those of the control group were defined as
analgesic activity (+) and the ED50 values were calculated by means of
Litchfield-Wilcoxon method. The ED50 value of methyl
3-nitro-4-allyloxyphenylacetate is defined as 1 and the activity ratios of
the test compounds were expressed as ratio of ED50 values. The test
compounds were administered as a suspension such as are adjusted to be 0.1
ml/10g in a 1% tragacanth solution. A 1% tragacanth solution was
administered to the control group.

In the case of `C=CCOc1ccc(CC(=O)O)cc1Cl` [3-chloro-4-allyloxyphenylacetic acid], the LD50 in “in vivo” (female) was 1630 mg/kg; in “in vivo” (male) it was 1700 mg/kg. The activity ratio in data set [1] was found to be 0.54.
